pIC50: −log10 of the molar value.
Target: T1, GRPR (Homo sapiens, UniProt P30550)
T1 construct: host or cells: PC-3 cells
Test: Competition binding against [^125I]I-Tyr^4-bombesin in living PC-3 cells
Conditions: radioligand [^125I]I-Tyr^4-BBN, 4 °C, 5 h, PBS 1% BSA
Protocol: For competition binding experiments live PC-3 cells were used. Using 12-well plates, 5 × 10^5 PC-3 cells were seeded in each well a day prior to the experiment. The day after, the supernatant was removed followed by washing of the cells with cold PBS (4 °C). Next 350 µL of PBS − 1% w/v bovine serum albumin (BSA) solution was added in the wells followed by 50 µl of the compound under investigation in the same buffer with increased concentrations (0 to 5000 nM). Finally, 100 µl of [^125I]I-Tyr^4-BBN (100,000 cpm, 24.6 fmol) in PBS − 1% w/v PBS solution were added and the cells were left to incubate at 4 °C for 5 h. Following a wash with PBS (4 °C), cells were treated with trypsin – EDTA solution and collected. Sample radioactivity was determined with a gamma counter and data analysis and curve fitting were done using GraphPad Prism 7 and a nonlinear regression model.
The statistical significance of the difference between the IC50s for the three conjugates tested was determined by one-way ANOVA with Tuckey’s post hoc analysis using GraphPad Prism.

Sequences of proteins named here, by UniProt entry; tags and fusion partners are left off. A change or cut given only in a name is not applied to a line headed by its entry.
UniProt P30550: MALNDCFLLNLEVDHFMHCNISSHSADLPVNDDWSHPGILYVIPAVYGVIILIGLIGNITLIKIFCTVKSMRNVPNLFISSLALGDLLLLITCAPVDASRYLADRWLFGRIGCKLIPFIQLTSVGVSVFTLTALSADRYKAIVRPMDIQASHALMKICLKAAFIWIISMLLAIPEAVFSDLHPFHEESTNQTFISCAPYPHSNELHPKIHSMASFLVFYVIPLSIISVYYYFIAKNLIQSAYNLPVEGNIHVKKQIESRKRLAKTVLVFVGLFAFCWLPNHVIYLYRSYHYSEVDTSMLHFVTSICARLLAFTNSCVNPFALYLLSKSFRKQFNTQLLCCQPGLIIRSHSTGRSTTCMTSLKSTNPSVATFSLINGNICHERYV

For “^natGa-NOTA-PEG2-RM26: ^natGa-loaded NOTA-PEG2-RM26 serving as an internal control”, the pIC50 was 8.38.

Source: paper PMC11748620, “Evaluation of maSSS/maSES-PEG2-RM26 for their potential therapeutic use after labeling with Re-188. Could their [^99mTc]Tc-labeled counterparts be used to estimate dosimetry?” (EJNMMI Radiopharmacy and Chemistry, 2025)
